Results on 2 molecules are retold here after patent US20020177166A1, “Binding motif of a receptor” (MEDVET SCIENCE PTY.LTD., priority 2000, published 2002).

Common to all, as to assay type: cell-based
Data set [1] deals with CTL-EN cells. The data set can be described thus: DNA laddering analysis. The settings on record: 20 ng/ml IL-2 or 50 ng/ml IL-3, 48 hours. As for the experimental part: (§1) Loss of cell viability in CTL-EN cells expressing the βcHSRSLP→EFAAAA in response to IL-3 was also reflected in loss of cellular metabolic activity as determined by the MTS reduction assay. […] To determine if the loss in cellular viability was due to apoptosis, we performed DNA laddering analysis. CTL-EN cells expressing either the wtβc or the βcHSRSLP→EFAAAA mutant were plated out as described above in 20 ng/ml IL-2, no factor (NF) or 50 ng/ml IL-3. Cells were harvested 48 hours later, the DNA extracted and subjected to agarose gel electrophoresis and ethidium bromide staining. […] As an additional means of examining the mode of cell death we performed combined annexin V and propidium iodide staining. For these experiments we examined CTL-EN cells expressing the wtβc, and the βcHSRSLP→EFAAAA mutant as well as two additional mutants, βcS585G and βcRSL→AAA. Cells were plated out in 20 ng/ml IL-2, no factor or 50 ng/ml IL-3, stained with annexin V and propidium iodide after 30 hours and analysed by flow cytometry. […] In the absence of factor, increased apoptotic cells were detected for wtβc (50.0%), βcS585G (45.1%), βcRSL→AAA (55.0%), and the βcHSRSLP→EFAAAA (37.0%) mutant. […] Together, the results shown in FIGS. 24C and 24D indicate that the defect in cell survival is due to increased apoptosis.

Data set [2] relates to CTL-EN cells. In words: Annexin V (and propidium iodide) staining, flow cytometry. The settings on record: for apoptotic cells (annexin V and propidium iodide positive cells): 20 ng/ml IL-2 or 50 ng/ml IL-3, 30 hours; for annexin V staining: 0.1% FCS, 16 hours. As for the experimental part: CTL-EN cells expressing IL-3Ra and either wtβc or βcHSRSLP→EFAAAA were washed and then plated at 5×10^5 cells/ml in DMEM containing 0.1% FCS and either long/ml IL-3 or 10 ng/ml IL-2 for 18 hours. Cells were then harvested by centrifugation and stained with annexin V according to the manufacturers instructions. Annexin V positive cells were then analysed by flow cytometry.
We then performed Annexin V binding studies to determine if the loss in cell viability in CTL-EN cells expressing the βcHSRSLP→EFAAAA mutant was due to apoptosis. CTL-EN cells expressing wtβc or βcHSRSLP→EFAAAA were washed and placed in medium containing 0.1% FCS and either IL-2 or IL-3 for 16 hours. The cells were then stained with annexin V and apoptotic cells were analysed by flow cytometry.
as §1
In general terms: A flow cytometer gives signals particle by particle.

For data set [3], the system named is CTL-EN cells. In words: CTL-EN cell viability, trypan blue exclusion. Particulars: 0.1% FCS; for viability: CTL-EN wtβc, up to 3 days; for viable cells: CTL-EN βcHSRSLP→EFAAAA. As for the experimental part:
(a) CTL-EN cells expressing IL-3Ra and either wtβc or βcHSRSLP→EFAAAA were washed and then plated in duplicate at 2.5×10^5 cells/ml in DMEM containing 0.1% FCS and either 10 ng/ml IL-3, 10 ng/ml IL-2 or long/ml IL-3 and 5 mM LY294002. Viable cells were counted using the trypan blue exclusion method after 4 days. The results shown are typical of 3 experiments. (b) CTL-EN cells expressing IL-3Ra and either wtβc or βcHSRSLP→EFAAAA were washed and then plated in triplicate at 5×10^5 cells/ml in DMEM containing 0.1% FCS and either no IL-3, 1 ng/ml IL-3 or 10 ng/ml IL-3. Metabolic activity was measured each day using the CellTiter96 AQueous one solution cell proliferation assay according to the manufacturers instructions. Shown are the raw absorbance values (490 nm) plotted against day for CTL-EN cells expressing wtβc in the presence of no IL-3 (u), 1 ng/ml IL-3 (I) or 10 ng/ml IL3 (n) and CTL-EN cells expressing the βcHSRSLP→EFAAAA mutant in the presence of no IL-3 (u) or 10 ng/ml IL-3 (t).
Given that 14-3-3 binding to Ser585 of βc is required for PI 3-kinase activation in response to IL-3 and also the important role PI 3-kinase is thought to play in mediating survival signals, we then examined the ability of IL-3 to promote long-term survival in CTL-EN cells expressing the βcHSRSLP→EFAAAA mutant receptor. […] However, a clear defect in the survival of CTL-EN cells expressing the βcHSRSLP→EFAAAA mutant was observed under low serum conditions. CTL-EN cells expressing the wt IL-3 receptor remain greater than 90% viable for up to 3-4 days under low serum conditions (0.1% FCS) in the presence of IL-3. To test the ability of IL-3 to promote cell survival, CTL-EN cells expressing either wtβc or βcHSRSLP→EFAAAA were plated out at 2.5×10^5 cells/ml in the presence of IL-3 or IL-2 in medium containing 0.1% FCS and viable cells were counted after 4 days.
The finding that 14-3-3 binding to Ser585 of βc is required for PI 3-kinase recruitment and activation in response to IL-3 and also the important role PI 3-kinase is thought to play in mediating survival signals raised the possibility that phosphorylation of Ser585 of βc was important in regulating cell survival. […] However, a defect in the survival of CTL-EN cells expressing the βcHSRSLP→EFAAAA mutant was observed under low serum conditions. Thus, while serum is neither necessary nor sufficient in promoting IL-3-mediated CTL-EN cell survival (unpublished observations) it can augment IL-3-mediated survival in cells expressing the βcHSRSLP→EFAAAA mutant receptor. CTL-EN cells expressing either wtβc or βcHSRSLP→EFAAAA were plated out at 5×10^5 cells/ml in the presence of 10 ng/ml IL-310.1% FCS and viable cells were counted over 3 days. […] The viability of CTL-EN cells expressing wtβc or βcHSRSLP→EFAAAA were maintained in the presence of the IL-2 control cytokine.

With IL-2: IL-2 control cytokine, the DNA laddering result in the data set on CTL-EN cells [1] (CTL-EN wtβc) and in the data set on CTL-EN cells [1] (CTL-EN βcHSRSLP→EFAAAA) was “no significant DNA laddering” in each case. In addition, the “apoptotic cells (annexin V and propidium iodide positive cells)” value in the data set on CTL-EN cells [2] (CTL-EN wtβc) stood at 11.8%; in the data set with CTL-EN cells [2] (CTL-EN βcHSRSLP→EFAAAA) it was 10.0%; in the data set with CTL-EN cells [2] (CTL-EN βcRSL→AAA), 8.9%; in the data set on CTL-EN cells [2] (CTL-EN βcS585G), 15.3%. For the same molecule, the “annexin V staining” value in the data set on CTL-EN cells [2] (CTL-EN wtβc) and in the data set with CTL-EN cells [2] (CTL-EN βcHSRSLP→EFAAAA) was “negligible annexin V staining” in each case. In the data set on CTL-EN cells [3] (5×10^5 cells/ml), the viability entry is “maintained”. Besides, the viable cells entry in the data set with CTL-EN cells [3] (after 4 days) is given as “able to maintain viability”; with CTL-EN cells [3] (5×10^5 cells/ml, after 3 days) it was “maintained”.

B1: IL-3: recombinant human IL-3 produced in E. coli (protein, UniProt P08700 20-152, looked up)
Interleukin-3: APMTQTTPLKTSWVNCSNMIDEIITHLKQPPLPLLDFNNLNGEDQDILMENNLRRPNLEAFNRAVKSLQNASAIESILKNLLPCLPLATAAPTRHPIHIKDGDWNEFRRKLTFYLKTLENAQAQQTTLSLAIF
On to B1, for which the DNA laddering entry was “no significant DNA laddering” in the data set with CTL-EN cells [1] (CTL-EN wtβc) and “clear DNA ladder typical of apoptotic cells” in the data set on CTL-EN cells [1] (CTL-EN βcHSRSLP→EFAAAA). Further, the “apoptotic cells (annexin V and propidium iodide positive cells)” value with CTL-EN cells [2] (CTL-EN wtβc) was 24.1%; in the data set on CTL-EN cells [2] (CTL-EN βcHSRSLP→EFAAAA), 42.7%; in the data set on CTL-EN cells [2] (CTL-EN βcRSL→AAA) it was 51.2%; with CTL-EN cells [2] (CTL-EN βcS585G), 46.5%. Moreover, in the data set with CTL-EN cells [2] (CTL-EN βcHSRSLP→EFAAAA), the “annexin V staining” value is reported as “increased annexin V staining”. Further, the viability entry in the data set on CTL-EN cells [3] (5×10^5 cells/ml) is “able to promote viability”. Further, the viable cells amounted to 7% with CTL-EN cells [3] (after 4 days) and 18% in the data set with CTL-EN cells [3] (5×10^5 cells/ml, after 3 days).
